Reference: ChEMBL document CHEMBL4024754, “Development of Potent, Protease-Resistant Agonists of the Parathyroid Hormone Receptor with Broad β Residue Distribution” (J Med Chem, 2017)
Activity calls are given as the source filed them. No cut-off for these calls is given here.

Protein sequences, listed by entry. Tags and fused reporters are not part of them. Lines headed by an entry give the natural chain unless they say otherwise; changes in a name come on top.
UniProt Q03431: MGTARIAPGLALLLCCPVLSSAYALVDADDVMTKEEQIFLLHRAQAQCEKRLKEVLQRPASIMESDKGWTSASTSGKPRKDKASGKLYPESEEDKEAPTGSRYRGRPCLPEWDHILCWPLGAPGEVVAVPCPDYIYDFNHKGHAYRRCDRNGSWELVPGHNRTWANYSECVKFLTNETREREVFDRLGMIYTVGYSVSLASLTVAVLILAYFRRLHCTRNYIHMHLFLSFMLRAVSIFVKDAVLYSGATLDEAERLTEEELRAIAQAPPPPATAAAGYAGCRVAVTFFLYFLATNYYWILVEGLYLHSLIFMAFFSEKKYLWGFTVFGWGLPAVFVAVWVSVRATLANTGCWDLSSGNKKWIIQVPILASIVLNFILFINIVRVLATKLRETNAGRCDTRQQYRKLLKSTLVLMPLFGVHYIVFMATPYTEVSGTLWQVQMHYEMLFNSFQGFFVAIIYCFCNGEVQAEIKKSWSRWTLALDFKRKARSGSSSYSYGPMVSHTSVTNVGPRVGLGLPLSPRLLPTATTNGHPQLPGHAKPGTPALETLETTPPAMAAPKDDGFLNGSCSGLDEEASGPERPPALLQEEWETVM

Key:
[1] = target: Parathyroid hormone/parathyroid hormone-related peptide receptor (Homo sapiens) (UniProt Q03431); experiment: Displacement of [125I]-PTH(1 to 34 residues) from R0 state of human PTHR1 expressed in African green monkey COS7 cell membranes incubated for >1 hr in presence of GTPgammaS by gamma radiation method
Method in brief: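 Competition binding to R0 state using membranes of Cos-7 cells transiently transfected with human PTHR1. Bound separated by filtration, γ counted.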

[2] = target: Parathyroid hormone/parathyroid hormone-related peptide receptor (Homo sapiens) (UniProt Q03431); experiment: Agonist activity at human PTH1 receptor expressed in human GP2.3 cells assessed as induction of cAMP at 0.1 to 100 nM preincubated with simulated gastric fluid for 3 mins followed by compound transfer to GP2.3 cells by luciferase reporter gene assay; type: functional, cell-based
[3] = target: Parathyroid hormone/parathyroid hormone-related peptide receptor (Homo sapiens) (UniProt Q03431); experiment: Agonist activity at human PTH1 receptor expressed in human GP2.3 cells assessed as induction of cAMP after 12 to 20 mins by luciferase reporter gene assay relative to PTH(1 to 34 residues)-NH2; type: functional, cell-based
Method in brief: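 HEK293-derived lines stably expressing Glosensor cAMP reporter plus full-length human PTHR1 (GP2.3) or ECD-truncated PTHR1 (GD5). Confluent monolayers preincubated at room temperature in CO2-independent medium with 0.5 mM D-luciferin until baseline stable (30 min), then varied agonist concentrations added. Maximal luminescence (12−20 min) used for sigmoidal variable-slope fits.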

inhibition [1]: Active | Activity [2]: Active | fold change (FC) [3]: 0.3
Sequence: ABALOPARATIDE
